Results: patent publication US9274101B2 (BIOLOG, Inc., priority 2001, dated 2016)
Where a SMILES comes first, the peptide text is derived from it.

Each molecule was assayed on T harzianum DAOM 190830 (assay: Carbon source utilization in SF-N MICROPLATE with redox purple). Settings: not given.
Type: cell-based, Trichoderma harzianum

| Molecule | carbon source utilization result |
| --- | --- |
| NCC(=O)N[C@@H](CCC(=O)O)C(=O)O [Glycyl-L-glutamic acid] (H-Gly-Glu-OH) | positive |
| C[C@H](N)C(=O)NCC(=O)O [L-alanyl-glycine] (H-Ala-Gly-OH) | positive |
| O=C(O)CCC(=O)C(=O)O [α-ketoglutaric acid] | positive |
| gentiobiose | positive |

Same assay, conditions: redox purple 200 μM, 0.25% GELRITE, 30° C., approximately 24 hours

| Molecule | carbon source utilization result |
| --- | --- |
| O=C(O)CC(Br)C(=O)O (stereo not shown) [Bromo succinic acid] | positive |
| O=C[C@H](O)[C@@H](O)[C@H](O[C@@H]1O[C@H](CO)[C@@H](O)[C@H](O)[C@H]1O)[C@H](O)CO [Cellobiose] | positive |
| O=C(O)CC(O)(CC(=O)O)C(=O)O [Citric acid] | positive |
| OC[C@@H](O)C(O)[C@H](O)CO [D-arabitol] | positive |
| O=C(CO)[C@@H](O)[C@H](O)[C@H](O)CO [D-fructose] | positive |
| O=C[C@H](O)[C@@H](O)[C@@H](O)[C@H](O)CO [D-galactose] | positive |
| OC[C@@H](O)[C@@H](O)[C@H](O)[C@H](O)CO [D-mannitol] | positive |
| O=C[C@@H](O)[C@@H](O)[C@H](O)[C@H](O)CO [D-mannose] | positive |
| OC[C@H]1O[C@H](OCC2O[C@@H](O)[C@H](O)[C@@H](O)[C@@H]2O)[C@H](O)[C@@H](O)[C@H]1O (stereo partly drawn) [D-melibiose] | positive |
| OC[C@@H](O)[C@@H](O)[C@H](O)[C@@H](O)CO [D-sorbitol] | positive |
| OC[C@H]1O[C@H](O[C@H]2O[C@H](CO)[C@@H](O)[C@H](O)[C@H]2O)[C@H](O)[C@@H](O)[C@@H]1O [D-trehalose] | positive |
| OCC(O)CO [Glycerol] | positive |
| OC[C@H]1O[C@@H](n2cnc3c(O)ncnc32)[C@H](O)[C@@H]1O [Inosine] | positive |
| C[C@H](N)C(=O)O [L-alanine] | positive |
| NC(=O)C[C@H](N)C(=O)O [L-asparagine] | positive |
| C[C@H](O)[C@@H](O)[C@@H](O)[C@H](O)C=O [L-fucose] | positive |
| N[C@@H](CCC(=O)O)C(=O)O [L-glutamic acid] | positive |
| NCCC[C@H](N)C(=O)O [L-ornithine] | positive |
| N[C@@H](Cc1ccccc1)C(=O)O [L-phenylalanine] | positive |

| Molecule | carbon source utilization result |
| --- | --- |
| O=C(O)[C@@H]1CCCN1 [L-proline] | positive |
| O=C1CC[C@@H](C(=O)O)N1 [L-pyroglutamic acid] | positive |
| N[C@@H](CO)C(=O)O [L-serine] | positive |
| COC(=O)C(C)=O [Methyl pyruvate] | positive |
| CC(=O)N[C@H]1C(O)O[C@H](CO)[C@@H](O)[C@@H]1O (stereo partly drawn) [N-acetyl-D-glucosamine] | positive |
| O=C(O)CCC(=O)O [Succinic acid] | positive |
| OC[C@@H](O)[C@@H](O)CO [i-erythritol] | positive |
| O=C(O)[C@]1(O)C[C@@H](O)[C@@H](O)[C@H](O)C1 [quinic acid] | positive |
| O=C(O)CCCCCCCCC(=O)O [sebacic acid] | positive |
| NC(=O)CCC(=O)O [succinamic acid] | positive |
| OC[C@H]1O[C@H](O)[C@H](O)[C@@H](O)[C@@H]1O [α-D-glucose] | positive |
| CC(O)CC(=O)O (stereo not drawn) [β-hydroxybutyric acid] | positive |
| COC1OC(CO)C(O)C(O)C1O (stereo not drawn) [β-methyl glucoside] | positive |
| NCCCC(=O)O [γ-aminobutyric acid] | positive |
| Tween-40 | positive |
| Tween-80 | positive |
| dextrin | positive |
| glycogen | positive |

What follows are molecules tested on E. coli 287 (ATCC #11775) (assay: Carbon source utilization in GN / SF-N MICROPLATE with redox purple, tetrazolium violet or resazurin). Settings: not given.

| Molecule | carbon source utilization result |
| --- | --- |
| N[C@@H](CCC(=O)O)C(=O)O [L-glutamic acid] | positive |

Same assay, conditions: redox purple; 0.85% NaCl suspension

| Molecule | carbon source utilization result |
| --- | --- |
| O=C(O)[C@@H]1CCCN1 [L-proline] | negative |

Same assay, conditions: resazurin; 0.2% carrageenan suspension

| Molecule | carbon source utilization result |
| --- | --- |
| NCCCC(=O)O [γ-aminobutyric acid] | positive |

Same assay, conditions: resazurin; 0.85% NaCl suspension

| Molecule | carbon source utilization result |
| --- | --- |
| NCCCC(=O)O [γ-aminobutyric acid] | equivocal (±) |

Same assay, conditions: the remaining results (all indicator/suspension combinations except redox purple in 0.85% NaCl)

| Molecule | carbon source utilization result |
| --- | --- |
| O=C(O)[C@@H]1CCCN1 [L-proline] | positive |
